Measurements reported in patent US20250161419A1, “SERPIN PEPTIDES AND METHODS OF USING THE SAME” (SERPIN PHARMA, LLC, priority 2022, published 2025).

Tested on: esophageal eosinophilia in Balb/C mice
Assay: Model of eosinophilic esophagitis using A. alternata as allergen, anti-MBP staining of esophageal sections
Assay type: in vivo, mouse
Details: twice weekly over 4 weeks, 8 treatments; vs vehicle and vs A1AT at a higher dose
Excerpt: Balb/C mice were repeatedly challenged with a series of the allergen A. alternata over 4 weeks. A. alternata is a common airborne mold associated with eosinophilic inflammation and a variety of allergic diseases, such as rhinitis, asthma and dermatitis, and is an established model that induces allergic reaction at the esophagus. In this model, the allergen challenges lead to an increase in esophageal eosinophilia. SP163M, A1AT or vehicle (control) was given twice weekly over the 4-week period for 8 total treatments. At the end of the study, esophageal sections were stained for the detection of MBP (eosinophilic marker) and quantitated per high power field.

## CCCC[C@H](NC(=O)[C@H](CC(C)C)NC(=O)[C@H](Cc1ccccc1)NC(=O)[C@@H](NC(=O)[C@H](Cc1ccccc1)NC(=O)[C@@H]1CCCN1C(=O)[C@H](CCCCN)NC(=O)[C@H](CC(N)=O)NC(=O)[C@H](Cc1ccccc1)NC(=O)[C@H](CCCCN)NC(=O)[C@@H](NC(C)=O)C(C)C)C(C)C)C(=O)N[C@H](C(=O)N[C@@H](CCC(=O)O)C(=O)N[C@@H](CCC(N)=O)C(=O)N[C@@H](CC(N)=O)C(=O)N[C@H](C(=O)N[C@@H](CCCCN)C(N)=O)[C@@H](C)O)[C@@H](C)CC [SP163M, Ac-VKFNKPFVFLNIeIEQNTK-NH2]
  number of eosinophils that infiltrated to the esophagus (per high power field): decreased the number of eosinophils that infiltrated to the esophagus
